# Laboratory results reported in patent US6861542B1, “Dimer amidopropyl dimethyl quaternary compounds” (SurfaTech Corporation, priority 2004, dated 2005).
# Assay: Anionic compatibility test (titration of 10% sodium lauryl sulfate with 10% solids quat solution)
# Type: physicochemical
# Details: 10% solids solution added to 100 ml of 10% sodium lauryl sulfate
# Procedure: The compounds evaluated were diluted to 10% solids with DI water before evaluation.
# A solution of 10% b weight sodium lauryl sulfate was prepared. The sodium lauryl sulfate was obtained from Colonial Chemical in South Pittsburgh Tennessee.
# Anionic Compatibility Test
# 100 ml of solution B was added to a 400 ml beaker. Solution A was slowly added until either a precipitate or haziness was noted. The number of ml of solution was recorded at the first point the haze of precipitate was noted. That point was noted as the end point. The higher the volume used to the end point the better the compatibility. The test is stopped at 100 ml at which point the product is considered fully compatible.
substance,measurement,setting,value
Hydrogenated dimer benzyl quat [Example 6],anionic compatibility rating,,Very
same,number of ml of solution A at the first point haze or precipitate was noted (end point),test stopped at 100 ml (fully compatible),87.0 mL
